In brackets after ≈: the same amount, converted by molar mass.
Experiments:
[1] = in water; cited from earlier work
[2] = Quenching studies of Py-SNPs in water (steady-state fluorescence); settings: monomer between 356 and 400 nm, on addition of quencher
[3] = Quenching studies of Py-SNPs in DMSO (time-resolved fluorescence, Stern-Volmer); settings: from slope of τ0/τ vs quencher concentration

SMILES | water solubility [1] [µg/mL] | change in fluorescence intensity of the pyrene monomer [2] [%] | bimolecular quenching rate constant kq [3]
Cc1ccc([N+](=O)[O-])cc1 | 361 (≈ 2630 µM) | 10 | 4.0 (±0.3) M^−1 ns^−1
C[N+](=O)[O-] |  |  | 1.7 (±0.1) M^−1 ns^−1

— patent US20190339279A1, “DETECTING NITROAROMATIC COMPOUNDS WITH PYRENE-LABELED STARCH NANOPARTICLES” (published 2019)
